Source: ChEMBL document CHEMBL1140924, “Biomedical application of orexin/hypocretin receptor ligands in neuroscience” (J Med Chem, 2009)

The chains behind the UniProt entries cited, without tags or fusion partners.
UniProt O43613, whole entry: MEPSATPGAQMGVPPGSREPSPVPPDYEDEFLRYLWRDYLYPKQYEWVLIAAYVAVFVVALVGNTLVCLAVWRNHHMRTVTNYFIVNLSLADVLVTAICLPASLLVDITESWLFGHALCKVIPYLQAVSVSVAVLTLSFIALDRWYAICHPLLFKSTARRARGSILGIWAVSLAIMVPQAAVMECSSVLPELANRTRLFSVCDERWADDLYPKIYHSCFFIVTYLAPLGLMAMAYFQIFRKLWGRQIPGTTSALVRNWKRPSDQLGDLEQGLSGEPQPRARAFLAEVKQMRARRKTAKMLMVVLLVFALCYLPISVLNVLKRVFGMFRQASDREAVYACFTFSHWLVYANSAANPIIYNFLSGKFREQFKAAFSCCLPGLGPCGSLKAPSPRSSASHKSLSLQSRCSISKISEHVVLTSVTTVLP

Molecular target: Orexin/Hypocretin receptor type 1 (Homo sapiens, UniProt O43613)
Assay: Antagonist activity at human OX1 receptor expressed in CHO cells assessed as inhibition of receptor-mediated calcium response by FLIPR
Type: functional, cell-based

pKb | SMILES
7.4 | COc1ccc(NC(=O)Nc2ccnc3ccccc23)cc1Cl
7.3 | Cc1cc2cc(NC(=O)Nc3ccnc4ccccc34)ccc2n1C
